Assay results taken from paper PMC2740399 (American Journal of Physiology - Cell Physiology, 2009).

Target: T1, HA-tagged hGnRHR (Homo sapiens, UniProt P30968)
T1 sequence (P30968 1-328): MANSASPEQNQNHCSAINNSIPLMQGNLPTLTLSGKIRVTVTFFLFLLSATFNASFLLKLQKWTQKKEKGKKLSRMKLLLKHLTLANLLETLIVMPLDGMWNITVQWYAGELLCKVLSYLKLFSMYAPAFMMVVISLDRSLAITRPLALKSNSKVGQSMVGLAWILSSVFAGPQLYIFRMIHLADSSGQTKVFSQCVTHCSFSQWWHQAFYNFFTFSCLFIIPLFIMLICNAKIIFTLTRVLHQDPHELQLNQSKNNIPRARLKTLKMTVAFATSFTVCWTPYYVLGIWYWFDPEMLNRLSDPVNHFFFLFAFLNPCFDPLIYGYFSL
Test: Cell surface expression of HA-hGnRHR
Type: cell-based
Details: HeLa; after 18 h with IN3; not shown

## cetrorelix
  effect of peptide antagonist on cell surface expression: failed to reduce hGnRHR expression
